In patent publication US20150376252A1:
“And” between values parts separate entries of the source, which are not always exact repeats. Equal values may be shown once.

Chains of the proteins cited; added tags and fusions are not shown. A line that says so, or that is headed by a name, gives the form on record, which may keep a tag or linker. Residues count along the entry.
UniProt O75581, 20-631 limits assumed: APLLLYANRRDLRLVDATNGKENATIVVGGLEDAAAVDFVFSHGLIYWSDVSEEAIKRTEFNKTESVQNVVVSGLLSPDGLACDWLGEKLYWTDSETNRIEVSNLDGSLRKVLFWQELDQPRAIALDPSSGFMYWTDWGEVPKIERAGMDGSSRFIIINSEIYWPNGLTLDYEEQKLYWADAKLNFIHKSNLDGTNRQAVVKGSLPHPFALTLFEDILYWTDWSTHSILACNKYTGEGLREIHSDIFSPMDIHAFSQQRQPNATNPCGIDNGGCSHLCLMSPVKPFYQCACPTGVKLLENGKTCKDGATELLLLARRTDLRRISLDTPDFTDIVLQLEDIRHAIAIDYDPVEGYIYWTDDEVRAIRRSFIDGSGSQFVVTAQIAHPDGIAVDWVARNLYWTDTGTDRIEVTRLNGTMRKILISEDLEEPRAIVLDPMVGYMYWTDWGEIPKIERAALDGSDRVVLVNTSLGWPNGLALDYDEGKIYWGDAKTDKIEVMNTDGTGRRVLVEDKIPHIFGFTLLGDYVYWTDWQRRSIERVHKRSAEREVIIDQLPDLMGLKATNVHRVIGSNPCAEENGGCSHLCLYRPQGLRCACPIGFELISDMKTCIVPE
UniProt Q9ULV1, 40-164, form in doubt: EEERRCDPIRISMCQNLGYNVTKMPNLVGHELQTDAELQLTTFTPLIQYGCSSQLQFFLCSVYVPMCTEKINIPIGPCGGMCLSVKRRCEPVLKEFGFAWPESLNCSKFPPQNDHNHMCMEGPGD
UniProt Q9ULV1, 37-537: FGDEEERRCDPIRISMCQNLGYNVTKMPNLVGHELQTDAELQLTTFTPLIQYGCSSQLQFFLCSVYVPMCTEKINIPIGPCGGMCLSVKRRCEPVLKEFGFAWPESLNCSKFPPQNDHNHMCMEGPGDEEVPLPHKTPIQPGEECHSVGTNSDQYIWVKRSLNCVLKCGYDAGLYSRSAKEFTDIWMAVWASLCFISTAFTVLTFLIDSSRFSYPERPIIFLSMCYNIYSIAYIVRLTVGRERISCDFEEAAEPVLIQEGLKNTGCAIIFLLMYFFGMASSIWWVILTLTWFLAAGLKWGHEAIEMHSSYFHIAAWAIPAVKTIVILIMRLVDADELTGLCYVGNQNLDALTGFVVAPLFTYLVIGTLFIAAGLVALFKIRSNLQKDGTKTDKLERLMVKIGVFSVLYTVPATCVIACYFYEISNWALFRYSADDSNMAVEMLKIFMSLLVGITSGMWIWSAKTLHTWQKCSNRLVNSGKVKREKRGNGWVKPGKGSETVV

Tests used:
[1] = molecular target: His8-tagged Lrp6 BP1-2 (Lrp6 extracellular beta-propeller domains 1 and 2) (UniProt O75581); assay: homologous competition, normalized values (FIG. 4C)
[2] = molecular target: His8-tagged Lrp6 BP1-2 (Lrp6 extracellular beta-propeller domains 1 and 2) (UniProt O75581); assay: comparison of the filing's own affinities (Lrp5/6 BP1-2 against Fz4)
[3] = molecular target: Fz4-FcH6 (human Frizzled 4 CRD, residues 40-164, fused to Fc and His6 tags) (human) (UniProt Q9ULV1); assay: AlphaScreen; competes biotin-MBP-Norrin on Fz4-Fc-H6
[4] = molecular target: His8-tagged Lrp6 BP1-2 (Lrp6 extracellular beta-propeller domains 1 and 2) (UniProt O75581); assay: AlphaScreen; competes biotin DKK1 peptide on H8-Lrp6 BP1-2
[5] = molecular target: His8-tagged Lrp6 BP1-2 (Lrp6 extracellular beta-propeller domains 1 and 2) (UniProt O75581); assay: AlphaScreen homologous competition: unlabeled MBP-Norrin against biotinylated MBP-Norrin on His8-Lrp6 BP1-2, normalized
[6] = molecular target: full-length human Fz4 receptor expressed on transfected cells (human) (UniProt Q9ULV1); assay: cell-based or functional assay
[7] = molecular target: His8-tagged Lrp6 BP1-2 (Lrp6 extracellular beta-propeller domains 1 and 2) (UniProt O75581); assay: homologous competition against biotinylated MBP-Norrin on Lrp6 BP1-2 (FIG. 4B, 4C); IC50 of the homologous competition
[8] = molecular target: Fz4-FcH6 (human Frizzled 4 CRD, residues 40-164, fused to Fc and His6 tags) (human) (UniProt Q9ULV1); assay: AlphaScreen saturation binding to Fz4-FcH6

IC50 [1] | fold lower affinity than Norrin-Fz4 interactions [2] | IC50 [3] | IC50 [4] | IC50 (read off the curve) [5] | EC50 of TCF reporter activation (cells cotransfected with Fz4 and Lrp5) [6] | TCF reporter activity of 293STF cells cotransfected with Fz4 and Lrp5 [6] | TCF reporter activity of 293STF cells transfected with full-length Fz4 [6] | IC50 [7] | EC50 (read off the curve) [8] | Substance
566 nM | > 40 fold | 34 nM | 72 nM | 500 to 600 nM | 6 nM and 0.6 µg/ml | 6 fold | 2 fold | 570 nM |  | MBP-Norrin (maltose binding protein fused to the N-terminus of human Norrin residues 25-133, wild-type) (ligand)
 |  |  |  |  |  |  |  |  | 10 nM | biotinylated MBP-Norrin (ligand)
